{
  "source": "patent US7276644",
  "target": "F-actin prepared from acetone powder of rabbit muscle, P68135",
  "test": "stopped-flow light scattering at 340 nm, 15 °C; acto-HMM with MgADP mixed with MgATP",
  "data": [
    {"protein": "recombinant wild type chicken smooth muscle myosin HMM (protein) chain 1: MSQKPLSDDEKFLFVDKNFVNNPLAQADWSAKKLVWVPSEKHGFEAASIKEEKGDEVTVELQENGKKVTLSKDDIQKMNPPKFSKVEDMAELTCLNEASVLHNLRERYFSGLIYTYSGLFCVVINPYKQLPIYSEKIIDMYKGKKRHEMPPHIYAIADTAYRSMLQDREDQSILCTGESGAGKTENTKKVIQYLAVVASSHKGKKDTSITQGPSFSYGELEKQLLQANPILEAFGNAKTVKNDNSSRFGKFIRINFDVTGYIVGANIETYLLEKSRAIRQAKDERTFHIFYYLIAGASEQMRNDLLLEGFNNYTFLSNGHVPIPAQQDDEMFQETLEAMTIMGFTEEEQTSILRVVSSVLQLGNIVFKKERNTDQASMPDNTAAQKVCHLMGINVTDFTRSILTPRIKVGRDVVQKAQTKEQADFAIEALAKAKFERLFRWILTRVNKALDKTKRQGASFLGILDIAGFEIFEINSFEQLCINYTNEKLQQLFNHTMFILEQEEYQREGIEWNFIDFGLDLQPCIELIERPTNPPGVLALLDEECWFPKATDTSFVEKLIQEQGNHAKFQKSKQLKDKTEFCILHYAGKVTYNASAWLTKNMDPLNDNVTSLLNQSSDKFVADLWKDVDRIVGLDQMAKMTESSLPSASKTKKGMFRTVGQLYKEQLTKLMTTLRNTNPNFVRCIIPNHEKRAGKLDAHLVLEQLRCNGVLEGIRICRQGFPNRIVFQEFRQRYEILAANAIPKGFMDGKQACILMIKALELDPNLYRIGQSKIFFRTGVLAHLEEERDLKITDVIIAFQAQCRGYLARKAFAKRQQQLTAMKVIQRNCAAYLKLRNWQWWRLFTKVKPLLQVTRQEEEMQAKDEELQRTKERQQKAEAELKELEQKHTQLCEEKNLLQEKLQAETELYAEAEEMRVRLAAKKQELEEILHEMEARIEEEEERSQQLQAEKKKMQQQMLDLEEQLEEEEAARQKLQLEKVTADGKIKKMEDDILIMEDQNNKLTKERKLLEERVSDLTTNLAEEEEKAKNLTKLKNKHESMISELEVRLKKEEKSRQELEKIKRKLEGESSDLHEQIAELQAQIAELKAQLAKKEEELQAALARLEDETSQKNNALKKIRELESHISDLQEDLESEKAARNKAEKQKRDLSEELEALKTELEDTLDTTATQQELR chain 2: SSKRAKAKTTKKRPQRATSNVFAMFDQSQIQEFKEAFNMIDQNRDGFIDKEDLHDMLASMGKNPTDEYLEGMMSEAPGPINFTMFLTMFGEKLNGTDPEDVIRNAFACFDEEASGFIHEDHLRELLTTMGDRFTDEEVDEMYREAPIDKKGNFNYVEFTRILKHGAKDKDD chain 3: CDFSEEQTAEFKEAFQLFDRTGDGKILYSQCGDVMRALGQNPTNAEVMKVLGNPKSDEMNLKTLKFEQFLPMMQTIAKNKDQGCFEDYVEGLRVFDKEGNGTVMGAEIRHVLVTLGEKMTEEEVEQLVAGHEDSNGCINYEELVRMVLSG", "values": [
      {"measurement": "Kobs for acto-HMM-ADP dissociation against 2.5 and 5.0 mM MgATP", "result": "Kobs for acto-HMM-ADP dissociation against 2.5 and 5.0 mM MgATP was identical for both mutant and wild-type SmM HMM's, yielding rates of 46 s^-1"}
    ]}
  ]
}
